{"source": "patent US7507707B2", "about": "“Methods of inducing ovulation using a non-polypeptide camp level modulator” (Laboratoires Serono SA, priority 2001, dated 2009)", "origin": "cited, not measured here", "details": "cited from earlier work"}
{"substance": "hCG: glycoprotein hormone that is biologically and immunologically similar to pituitary LH", "values": [{"measurement": "detectable in the patient's blood after injection", "setting": "after injection", "result": "7 to 10", "unit": "days"}, {"measurement": "half-life", "setting": "patient", "result": "approximately 8 hours"}]}
